# Measured values published in PubChem BioAssay AID743261 (The Scripps Research Institute Molecular Screening Center, 2014).
# By UniProt entry, the sequences of proteins in these tests, tags left out.
# UniProt Q01970, whole entry: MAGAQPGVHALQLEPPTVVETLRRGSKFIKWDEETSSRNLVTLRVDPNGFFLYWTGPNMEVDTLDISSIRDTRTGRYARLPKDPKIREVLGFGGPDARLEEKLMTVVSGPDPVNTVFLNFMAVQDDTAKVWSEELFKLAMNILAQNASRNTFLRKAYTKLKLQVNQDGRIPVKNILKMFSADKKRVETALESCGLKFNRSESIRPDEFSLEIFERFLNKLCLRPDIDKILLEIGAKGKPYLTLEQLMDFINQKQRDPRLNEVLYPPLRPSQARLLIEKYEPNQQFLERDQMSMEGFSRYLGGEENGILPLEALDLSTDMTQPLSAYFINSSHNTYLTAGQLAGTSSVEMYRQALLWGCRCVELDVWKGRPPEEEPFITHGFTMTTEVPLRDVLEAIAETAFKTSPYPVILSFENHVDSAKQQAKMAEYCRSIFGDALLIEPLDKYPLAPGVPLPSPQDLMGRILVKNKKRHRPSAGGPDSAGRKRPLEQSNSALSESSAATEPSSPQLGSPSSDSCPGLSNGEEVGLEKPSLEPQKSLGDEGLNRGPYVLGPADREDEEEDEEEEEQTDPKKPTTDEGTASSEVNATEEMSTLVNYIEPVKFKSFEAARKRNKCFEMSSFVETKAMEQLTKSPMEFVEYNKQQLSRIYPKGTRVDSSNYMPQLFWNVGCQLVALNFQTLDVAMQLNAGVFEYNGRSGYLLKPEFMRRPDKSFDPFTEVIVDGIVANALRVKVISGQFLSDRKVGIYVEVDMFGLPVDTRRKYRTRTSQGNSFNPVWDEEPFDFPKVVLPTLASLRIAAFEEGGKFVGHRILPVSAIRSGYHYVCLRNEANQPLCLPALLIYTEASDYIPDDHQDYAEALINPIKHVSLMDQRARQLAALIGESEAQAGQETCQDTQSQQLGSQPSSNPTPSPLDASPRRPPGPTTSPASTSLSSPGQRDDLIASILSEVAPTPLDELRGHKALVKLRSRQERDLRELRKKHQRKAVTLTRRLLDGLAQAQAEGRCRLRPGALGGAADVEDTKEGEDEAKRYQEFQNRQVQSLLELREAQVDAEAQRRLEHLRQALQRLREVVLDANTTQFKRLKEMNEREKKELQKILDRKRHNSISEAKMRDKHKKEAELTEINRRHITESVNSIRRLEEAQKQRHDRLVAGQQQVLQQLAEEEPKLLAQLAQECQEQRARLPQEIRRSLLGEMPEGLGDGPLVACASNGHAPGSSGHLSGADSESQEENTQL
# The entries are a selection whose mix differs from that of the whole data set. Activity calls are given as the source filed them. Cut-off read from the data, not from the text of the source: active = inhibition above about 11%; inactive = the rest.
# Molecular target: 1-phosphatidylinositol 4,5-bisphosphate phosphodiesterase beta-3 (Homo sapiens) (UniProt Q01970)
# Test: retest of human PLCB3 enzyme blockers – biochemical, fluorescence, purified enzyme, confirmation (AID 743261)
# Settings: purified PLC-beta3, fluorogenic substrate fluorescence; at 12.3 µM; stronger effect = higher value
row,SMILES,inhibition
1,CCC(c1nnnn1C1CCCCC1)N1CCC(n2c(=O)[nH]c3ccccc32)CC1 (stereo unspecified),inactive: 2.89%
